Data from patent EP0452101B1 (dated 1991).
Where two headings read alike, the source gives them in different places.

Molecular target: muscarinic receptors
Test: (-)3H-QNB binding to rat cerebral cortex homogenates with and without Cu++ treatment
[1] = read-out: KH, with Cu++ pretreatment (100 µM, 30 minutes)
[2] = read-out: KL, with Cu++ pretreatment (100 µM, 30 minutes)
[3] = read-out: KL, without pretreatment

SMILES: CC1OC2(CS1)CN1CCC2CC1 (stereo not drawn) [AF102B, cis-2-methylspiro(1,3-oxathiolane-5',3)quinuclidine, reference compound]
- Ki [1]: 20 nM
- Ki [2]: 3000 ± 10 nM
- Ki [3]: 3300 nM

SMILES: C[N+](C)(C)CCOC(N)=O [Carbachol]
- Ki [1]: 110 ± 10 nM
- Ki (read-out: KH, without pretreatment): 893 ± 70 nM
- Ki [2]: 17500 ± 3200 nM
- Ki [3]: 27000 ± 700 nM
- %H (% of high affinity state) (with Cu++ pretreatment (100 µM, 30 minutes)): 44%
- %H (% of high affinity state) (with Cu++ pretreatment (100 µM, 30 minutes), listed as 1): 44±3%
- %H (% of high affinity state) (without pretreatment): 25%
- %H (% of high affinity state) (without pretreatment, listed as 1): 25±1%
